This is a selection; strong and weak results do not stand in their true shares. Results filed as inconclusive are left out. The source made the active and inactive calls. Calls follow the shape of the dose curve; as a rule, active = well fitted inhibition curve with a large enough effect; inconclusive = small, poorly fitted or top-dose-only effect; inactive = flat fitted curve, though single readings scatter.
Test: qHTS for Inhibitors of TGF-b: Cytotox Counterscreen for Cherry Picks; also: nearly all actives have a fitted effect of over 70% in size
Conditions: HepG2 CAGA-GFP viability, ATP luminescence, 18 h; cells stimulated with TGF-beta, 500 pg/mL
From the text: TGF-b is a main component in the TGF-b signaling pathway which plays diverse roles in cellular and development pathways. TGF-b is mediated by transcription factors called "Smads". Although the Smad-dependent pathway is the primary canonical TGF-b signaling mode, TGF-b1 can also activate alternative signaling pathways, including those involving MAPK (ERK, JNK and p38). This interaction may mediate or enhance Smad-dependent responses, or can exert Smad-independent effects. The complexity of this signaling cascade allows the TGF-b superfamily to perform unique, overlapping or redundant functions. […] We aim to identify Smad3-small molecule antagonists using a quantitative high throughput screening (qHTS) approach. […]
Suspensions of trypsinized HEPG2 CAGA-GFP cells were dispensed into white, tissue culture-treated, solid 1536-well plates at 5uL/well (1000 cells/well final concentration) in DMEM medium supplemented with 1% FBS. […] Two uL of CellTiter Glo (Promega), a luminescence-based viability reagent, was dispensed, followed by a 10 minute room temperature incubation. The plates were then measured on a PerkinElmer ViewLux plate reader for luminescence (clear filter) using a 5 second exposure. The %Activity was determined from the corrected luminescence values. […] Concentration-response curves were fitted to the signals arising from the resulting luminescence. […]
Potency is read from the fitted curve at half-maximal effect.

Row | SMILES | Potency
1 | O=c1c2cc([N+](=O)[O-])ccc2[nH]c2c([N+](=O)[O-])cc([N+](=O)[O-])cc12 | active: 4.11 µM
2 | CC1=CC2OC3CC4OC(=O)/C=C/C=CC(C(C)O)OCC(O)C(C)CC(=O)OCC2(CC1O)C4(C)C31CO1 (configuration not stated) | active: 0.0651 µM
